{"sequences": {"note": "The chains behind the UniProt entries cited, without tags or fusion partners. Residues count along the entry.", "UniProt P28335, 33-458": "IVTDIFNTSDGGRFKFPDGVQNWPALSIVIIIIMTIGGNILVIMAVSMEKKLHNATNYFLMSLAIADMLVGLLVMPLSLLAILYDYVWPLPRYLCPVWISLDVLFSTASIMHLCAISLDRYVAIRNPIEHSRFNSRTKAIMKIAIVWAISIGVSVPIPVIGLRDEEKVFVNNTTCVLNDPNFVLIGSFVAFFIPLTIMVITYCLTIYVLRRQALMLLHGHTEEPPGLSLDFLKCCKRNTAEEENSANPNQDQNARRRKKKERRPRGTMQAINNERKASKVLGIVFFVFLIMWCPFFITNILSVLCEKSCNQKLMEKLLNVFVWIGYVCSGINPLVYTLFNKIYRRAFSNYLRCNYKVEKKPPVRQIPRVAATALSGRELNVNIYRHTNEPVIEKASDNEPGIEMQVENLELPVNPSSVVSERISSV"}, "source": "patent US20090203750A1", "about": "“5-HT2C Receptor Agonists as Anorectic Agents” (priority 2005, published 2009)", "key": {"[1]": {"target": "T1, human 5-HT2C receptor (Homo sapiens, UniProt P28335)", "T1 construct": "expressed in transfected cells; host or cells: HEK-293", "assay": "Functional activity by Ca++-flux (intracellular calcium mobilization), 5-HT2C", "assay_type": "cell-based", "procedure": "The functional activity of the compounds for the human 5-HT2A, human 5-HT2B, and human 5-HT2C receptors is determined by measurement of Ca++-flux as detailed in the Examples, in transiently transfected HEK-293 cells and the results are summarized in Table I. Structures of compounds listed in Table I are given in Scheme 15.\nThe functional activity of compounds for the human 5-HT2A, human 5-HT2B, and human 5-HT2C receptors as agonists, partial agonists and antagonists is determined by measurement of Ca++-flux. The results are summarized in Table 1 where EC50 for different receptors are given (nM) and the ratio of activities 2A/2C and 2B/2C are also given. As noted above, other methods for assessing agonist/antagonist function of compounds for 5-HT2 family receptors are known in the art.\nFor these studies stably expressing lines of h5-HT2A, h5-HT2B, and h5-HT2C receptors are prepared in HEK-293 cells. For the h5-HT2A and h5-HT2C-INI receptors, stably expressing HEK-293 cell lines were constructed as previously described using a pIRES-NEO vector system (See: Rauser et al, J Pharmacol Exp Ther 299: 83-89, 2001).\nStable cell lines were plated with ˜40,000 cells/well into uncoated (3T3 cells) or poly-L-lysine coated (HEK293 cells) 96-well plates in DMEM supplemented with 5% dialyzed FBS. 16-24 hrs post-plating, the medium was aspirated and replaced with 30 μl/well of Calcium Assay Kit Component A Dye (Molecular Devices; Sunnyvale, Calif.) dissolved in 30 ml/bottle of assay buffer (2.5 mM probenecid, 20 mM Hepes, and 1× Hanks' Balanced Salt Solution (Invitrogen; Carlsbad, Calif.) (138 mM NaCl, 5.3 mM KCl, 1.3 mM CaCl2, 0.49 mM MgCl2, 0.41 mM MgSO4, 0.44 mM KH2PO4, 0.34 mM Na2HPO4) pH 7.4. Plates were incubated in the dye for 1 hr at 37° C. Dilutions were made in assay buffer as 2× stocks and added to 96-well drug plates. Fluorometric imaging was performed using a FlexStation II plate reader (Molecular Devices) reading the plate at 1.5 second intervals for 1 min. After establishing a fluorescent baseline (excitation at 485 nm and emission at 525 nm, using a […] cutoff), the FlexStation II automatically transferred 30 μl of 2× drug stocks from the drug plate to the cell plate at the 20 second time point with reading for another 40 seconds. Peak relative fluorescence units (RFU) were subtracted from baseline RFUs using SoftMax Pro (Molecular Devices) and values were imported into GraphPad Prism version 4.03 (GraphPad Software; San Diego, Calif.) for analysis. Ca++-flux studies are very convenient for initial screening of large numbers of compounds for agonist activity.\nCompounds are resuspended in DMSO at a stock concentration of 2-15 mM and, for a typical agonist screen, are diluted in assay buffer to a final 2× concentration of 20 μM into drugs plates. […]"}, "[2]": {"target": "T2, human 5-HT2B receptor (Homo sapiens, UniProt P41595)", "T2 construct": "expressed in transfected cells; host or cells: HEK293 (ATCC CRL-1573), retroviral infection with pBabepuro-FLAG-h5-HT2BR, polyclonal line", "assay": "Functional activity by Ca++-flux (intracellular calcium mobilization), 5-HT2B", "assay_type": "cell-based", "conditions": "HEK-293 cells, NA = not active"}}}
{"substance": "trans-(±)-[2-(4-Fluoro-phenyl)-cyclopropyl]-methylamine Hydrochloride [TKU-II-90]", "values": [{"measurement": "activity at 5-HT2C receptor", "setting": "[1]", "result": "good potency"}, {"measurement": "EC50", "setting": "[1]; Ca++-flux, HEK-293 cells, NA = not active", "result": 7.4, "unit": "nM"}, {"measurement": "2A/2C ratio", "setting": "[1]; ratio of EC50 5-HT2A / 5-HT2C", "result": 0.96}, {"measurement": "2B/2C ratio", "setting": "[1]; ratio of EC50 5-HT2B / 5-HT2C", "result": 0.96}, {"measurement": "EC50", "setting": "[2]", "result": 7.1, "unit": "nM"}]}
